Test results published in US8114641B2, “Methylbutanol as an advanced biofuel” (Synthetic Genomics, Inc., priority 2007, dated 2012).
Where two headings read alike, the source gives them in different places.

Assays:
[1] = Physical properties of alcohol fuels and gasoline; assay type: physicochemical
[2] = Fuel properties of the neat fuel

Butanol [reference compound]
Boiling Point, max [1]: 118 °C | Flash Point, min [1]: 36 °C | Freezing Point, max [1]: −90 °C | Energy Content (10% blend in gasoline): 113,320 BTU/gal | Pump Octane (R + M)/2 (10% blend in gasoline, RBOB with Pump Octane 80.85 and RVP 7.37): 83.3 | Reid Vapor Pressure (measured with 9.5% volumetric blend in RBOB): ~7^B psi | Energy Content [2]: 107,196 BTU/gal | Reid Vapor Pressure [2]: 0.7 psi | Pump Octane (R + M)/2 ([2]; extrapolated from tests on blended fuels (blending octanes)): 105.7
